Results as given in patent US11331393B2, “Renal-homing peptide conjugates and methods of use thereof” (BLAZE BIOSCIENCE, INC., priority 2017, dated 2022).
Read-outs that look alike come from different tables or passages of the source.

Columns and labels:
kidney = conditions: ^14C-methylated peptide, intravenous, 30-100 nmol per mouse
[1] = system: kidney cortex / proximal tubules; conditions: 10 nmol lysozyme-dye conjugate, 20 hours (FIG. 7C, 7D); 'has been shown to accumulate'; cited from earlier work

Substance | accumulation of ^14C signal in kidney (kidney; 3 hours after administration (FIG. 3A)) | accumulation of ^14C signal in kidney (kidney; 24 hours after administration (FIG. 3B)) | kidney uptake relative to control peptide-AF647 (kidneys; 10 nmol SEQ ID NO: 4-AF647 or 10 nmol control peptide-AF647 i.v., 4 hours, three mice per cohort, p-value of 0.015 (Student's unpaired t-test)) | nature of renal peptide uptake (kidneys; self-competition, unlabeled versus AF647-labeled SEQ ID NO: 4, 4 hours, i.v.) | accumulation in the proximal tubules (positive control) [1]
GSSCEPGRTFRDRCNTCRCGADGRSAACTLRACPNQ [SEQ ID NO: 4] | accumulation of ^14C signal | accumulation of ^14C signal | significantly higher extent | specific and saturable | 
lysozyme |  |  |  |  | accumulate in the proximal tubules
